In general, IC50 refers to the midpoint of a concentration-inhibition curve.

The chains behind the UniProt entries cited, without tags or fusion partners. Residues count along the entry.
UniProt Q99504, 127-573: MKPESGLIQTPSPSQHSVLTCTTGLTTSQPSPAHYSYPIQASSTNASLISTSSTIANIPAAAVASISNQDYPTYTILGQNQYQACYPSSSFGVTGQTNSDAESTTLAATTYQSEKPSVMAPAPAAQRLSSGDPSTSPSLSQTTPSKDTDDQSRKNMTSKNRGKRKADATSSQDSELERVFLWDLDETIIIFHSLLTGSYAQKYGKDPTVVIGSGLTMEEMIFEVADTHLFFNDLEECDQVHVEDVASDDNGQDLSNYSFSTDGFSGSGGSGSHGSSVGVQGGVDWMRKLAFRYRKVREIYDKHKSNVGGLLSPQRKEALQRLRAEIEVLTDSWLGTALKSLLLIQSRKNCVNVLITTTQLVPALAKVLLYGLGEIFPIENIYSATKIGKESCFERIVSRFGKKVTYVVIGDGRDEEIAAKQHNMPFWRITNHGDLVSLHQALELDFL
UniProt P97480, 223-510: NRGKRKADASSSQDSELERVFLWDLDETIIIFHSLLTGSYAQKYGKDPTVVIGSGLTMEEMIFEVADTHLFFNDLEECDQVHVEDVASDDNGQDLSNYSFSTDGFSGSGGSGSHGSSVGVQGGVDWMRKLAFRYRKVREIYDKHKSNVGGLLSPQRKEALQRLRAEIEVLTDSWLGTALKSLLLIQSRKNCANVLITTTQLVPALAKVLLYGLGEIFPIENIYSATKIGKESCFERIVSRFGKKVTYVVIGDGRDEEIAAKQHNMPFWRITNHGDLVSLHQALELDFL
UniProt P18031, whole entry, species assumed: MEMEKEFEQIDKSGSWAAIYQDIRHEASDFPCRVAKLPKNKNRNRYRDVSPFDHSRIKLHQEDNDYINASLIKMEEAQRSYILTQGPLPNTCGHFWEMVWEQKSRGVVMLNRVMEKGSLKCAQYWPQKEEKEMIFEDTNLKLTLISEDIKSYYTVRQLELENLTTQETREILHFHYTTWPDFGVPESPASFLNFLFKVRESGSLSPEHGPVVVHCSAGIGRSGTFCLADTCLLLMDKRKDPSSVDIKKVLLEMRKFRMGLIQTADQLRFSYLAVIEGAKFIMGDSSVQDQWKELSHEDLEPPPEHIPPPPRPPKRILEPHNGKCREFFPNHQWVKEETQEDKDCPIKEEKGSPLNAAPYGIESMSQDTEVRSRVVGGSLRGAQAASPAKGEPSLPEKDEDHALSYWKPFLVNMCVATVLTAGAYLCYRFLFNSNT

Holding throughout (type): biochemical
One assay deals with EYA3 (Homo sapiens (Human), UniProt Q99504). As to the kind of experiment: pNPP assay, full-length human recombinant EYA3. As to conditions: pNPP substrate. The text has this: (§1) The catalytic domain of mouse Eya3 (“ED”, comprising residues 223-510 of Eya3) was purified as described by Rayapureddi, J. P. et al. (FEBS Lett 580, 3853-3859 (2006), incorporated by reference in its entirety). For full-length Eya3 (“hEYA3”), human Eya3 isoform 2 (representing the major species identified in human cell lines by mass spectrometry, expressed as residues 127-573 of NM_001990, isoform 1) was sub-cloned into pDEST565 to express a poly-histidine-Glutathione-S-transferase (His-GST) tagged fusion protein with a TVMV protease site. The protein was purified by glutathione-S-transferase affinity chromatography followed by TVMV cleavage, Ni-NTA chromatography, and finally size exclusion chromatography.
[…] The amount of 4-nitrophenol (pNP) produced was monitored at […] on a BioTek EL808 plate reader. A similar protocol was used to screen for inhibitor activity using hEYA3 and hEYA2(ED).
The compounds were then tested using full-length human recombinant, purified EYA3 and pNPP as a substrate. Compounds were dissolved in DMSO and diluted as needed. […] Reactions were incubated at 30° C. for 30 minutes and quenched with 100 mM EDTA pH 10. IC50 values were then calculated directly from regression curves using PRISM software. All reported values are the mean of two independent experiments.

For a further assay, the target named is Eya3(ED) (Mus musculus (Mouse), UniProt P97480). Kind of assay: p-nitrophenylphosphate (pNPP) assay, catalytic domain of Eya3. The following applies: pNPP substrate.
Source text: as §1
An inhibitory assay was conducted using the previously described p-nitrophenylphosphate assay (Rayapureddi, J. P. et al. Nature 426, 295-298 (2003)). Briefly, ED was incubated in a reaction mixture containing 20 mM MES pH 6, 2 mM MgCl2, 125 μM inhibitor, 3.4 mM para-nitrophenol phosphate (pNPP) and 0.01 μg/μL enzyme. The amount of 4-nitrophenol (pNP) produced was monitored at […] on a BioTek EL808 plate reader. […]
The compounds were then tested using full-length human recombinant, purified EYA3 and pNPP as a substrate. […] IC50 values were then calculated directly from regression curves using PRISM software. […]

The target of another assay is PTP1B (Homo sapiens (Human), UniProt P18031). As to the kind of experiment: PTP1B-catalyzed pNPP hydrolysis. As to conditions: EYA3 vs PTP1B. The protocol:
The catalytic domain of human Eya2 (“hEYA2(ED)”) was similarly sub-cloned as a polyhistidine fusion construct in the vector pDEST-527. Fusion protein was purified by NiNTA chromatography and followed by size-exclusion chromatography over a Superdex-75 column. The relative purity of protein samples was determined using SDS-PAGE. PTP1B was purified as described previously (Rayapureddi, J. P. et al. Nature 426, 295-298 (2003), incorporated by reference in its entirety).
An inhibitory assay was conducted using the previously described p-nitrophenylphosphate assay (Rayapureddi, J. P. et al. Nature 426, 295-298 (2003)). Briefly, ED was incubated in a reaction mixture containing 20 mM MES pH 6, 2 mM MgCl2, 125 μM inhibitor, 3.4 mM para-nitrophenol phosphate (pNPP) and 0.01 μg/μL enzyme.
PTP1B is a classical Cys-based tyrosine phosphatase.

Regarding `CCCCc1oc2ccccc2c1C(=O)c1ccc(O)cc1` [Compound 1b], the IC50 at EYA3 stood at 15.2 µM.
As to `CCc1oc2ccccc2c1C(=O)c1cc(Br)c(O)c(Br)c1` [Compound 1, Benzbromarone, reference compound], the IC50 against Eya3(ED) amounted to 11 µM; at EYA3, 8.3 µM. The “fold greater activity towards EYA3 than PTP1B” value on PTP1B was 4.7-6.5 fold.

Source of the values: patent US9725430B2, “Use of small molecule inhibitors targeting EYA tyrosine phosphatase” (Children's Hospital Medical Center, priority 2013, dated 2017).
